# Only a part is listed here, and it is no random draw. The source made the active and inactive calls. Rule as the data show it: active = inhibition above about 25%; inactive = the rest.
# Sequences of proteins named here, by UniProt entry; tags and fusion partners are left off. Residues count along the entry.
# UniProt Q9ULH1, 325-724 limits assumed: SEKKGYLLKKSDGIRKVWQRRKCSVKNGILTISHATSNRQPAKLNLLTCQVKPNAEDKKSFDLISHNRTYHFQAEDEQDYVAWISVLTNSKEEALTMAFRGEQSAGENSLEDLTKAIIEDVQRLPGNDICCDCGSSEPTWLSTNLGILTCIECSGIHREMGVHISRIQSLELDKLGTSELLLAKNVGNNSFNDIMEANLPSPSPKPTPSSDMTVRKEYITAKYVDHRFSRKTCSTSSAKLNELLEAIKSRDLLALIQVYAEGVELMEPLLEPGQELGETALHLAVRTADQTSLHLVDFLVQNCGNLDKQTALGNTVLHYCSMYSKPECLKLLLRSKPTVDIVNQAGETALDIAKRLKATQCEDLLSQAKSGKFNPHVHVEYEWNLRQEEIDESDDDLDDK
# Target: Arf-GAP with SH3 domain, ANK repeat and PH domain-containing protein 1 (Homo sapiens) (UniProt Q9ULH1)
# Experiment: inhibitors of human ASAP1 ArfGAP activity, primary screen, biochemical, fluorescence polarization (AID 624377);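 also: 0% = vehicle with enzyme and substrate and 100% = no enzyme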
# Details: ASAP1-stimulated ARF1 GTP hydrolysis, GDP FP detection; at 16.5 µM; hits give high values
row,Structure (SMILES),inhibition
1,CCC(=O)N(c1ccccc1)C1(COC)CCN(CCn2nnn(CC)c2=O)CC1,inactive: 2.22%
2,CCC(=O)N(c1ccccc1)C1(COC)CCN(CCc2cccs2)CC1,inactive: -9.01%

# Source: PubChem BioAssay AID624377 (The Scripps Research Institute Molecular Screening Center, 2012)
